Measurements as given in PubChem BioAssay AID1159536 (DiRusso Lab, Biochemistry Department, University of Nebraska, 2015).
pEC50: −log10 of the molar value. Records with an inconclusive call do not appear.

System: Chlamydomonas reinhardtii, Nile Red lipid fluorescence, 72 h
Test: compounds raising TAG storage in Chlamydomonas – qHTS, Chlamydomonas reinhardtii, dose response (AID 1159536)

Fc1ccccc1NC1CCN(Cc2ccccc2)CC1
pEC50: 5.00
